In ChEMBL document CHEMBL5154779, “Exploration of novel phthalazinone derivatives as potential efflux transporter inhibitors for reversing multidrug resistance and improving the oral absorption of paclitaxel” (Eur J Med Chem, 2022):

Experiments:
Format in all cases: cell-based
Conditions in all cases: Canis lupus familiaris
MDCK-II-BCRP [1] = experiment: Reversal of BCRP-mediated multidrug resistance in dog MDCK-II-BCRP cells assessed as fold reduction in mitoxantrone IC50 at 0.01 uM measured after 48 hrs by MTT assay relative to mitoxantrone IC50 alone
MDCK-II-BCRP [2] = experiment: Reversal of BCRP-mediated multidrug resistance in dog MDCK-II-BCRP cells assessed as fold reduction in mitoxantrone IC50 at 0.15 uM measured after 48 hrs by MTT assay relative to mitoxantrone IC50 alone
MDCK-II-BCRP [3] = experiment: Reversal of BCRP-mediated multidrug resistance in dog MDCK-II-BCRP cells assessed as fold reduction in mitoxantrone IC50 at 0.05 uM measured after 48 hrs by MTT assay relative to mitoxantrone IC50 alone
MDCK-II-BCRP [4] = experiment: Reversal of BCRP-mediated multidrug resistance in dog MDCK-II-BCRP cells assessed as fold reduction in mitoxantrone IC50 at 0.4 uM measured after 48 hrs by MTT assay relative to mitoxantrone IC50 alone
MDCK-II-BCRP [5] = experiment: Reversal of BCRP-mediated multidrug resistance in dog MDCK-II-BCRP cells assessed as fold reduction in mitoxantrone IC50 at 0.2 uM measured after 48 hrs by MTT assay relative to mitoxantrone IC50 alone
MDCK-II-BCRP [6] = experiment: Reversal of BCRP-mediated multidrug resistance in dog MDCK-II-BCRP cells assessed as fold reduction in mitoxantrone IC50 at 1.25 uM measured after 48 hrs by MTT assay relative to mitoxantrone IC50 alone
MDCK-II-BCRP [7] = experiment: Reversal of BCRP-mediated multidrug resistance in dog MDCK-II-BCRP cells assessed as fold reduction in mitoxantrone IC50 at 0.1 uM measured after 48 hrs by MTT assay relative to mitoxantrone IC50 alone
MDCK-II-BCRP [8] = experiment: Reversal of BCRP-mediated multidrug resistance in dog MDCK-II-BCRP cells assessed as fold reduction in mitoxantrone IC50 at 20 uM measured after 48 hrs by MTT assay relative to mitoxantrone IC50 alone

O=C(Nc1ccc(CCN2CCOCC2)cc1)c1nn(-c2ccc(Cl)cc2)c(=O)c2ccccc12
Ratio IC50 (MDCK-II-BCRP [1]): 1.13 | Ratio IC50 (MDCK-II-BCRP [2]): 9.58 | Ratio IC50 (MDCK-II-BCRP [3]): 136 | Ratio IC50 (MDCK-II-BCRP [4]): 15.7 | Ratio IC50 (MDCK-II-BCRP [5]): 12 | Ratio IC50 (MDCK-II-BCRP [6]): 15.1 | Ratio IC50 (MDCK-II-BCRP [7]): 2.8 | Ratio IC50 (MDCK-II-BCRP [8]): 46.3
